Apparent affinities of Ab-14 variants for a coronavirus HR2 peptide

The target is the same throughout: PDVDLGDISGINAS, from the HR2 region of SARS-CoV-2 spike.

Parent: Ab-14, a human scFv built as VH, three GGGGS repeats, VL. Only the CDRs of the heavy chain vary.
VH: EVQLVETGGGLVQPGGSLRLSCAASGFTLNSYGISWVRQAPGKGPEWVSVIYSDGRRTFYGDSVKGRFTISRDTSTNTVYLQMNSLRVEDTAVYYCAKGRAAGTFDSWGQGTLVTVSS
VL: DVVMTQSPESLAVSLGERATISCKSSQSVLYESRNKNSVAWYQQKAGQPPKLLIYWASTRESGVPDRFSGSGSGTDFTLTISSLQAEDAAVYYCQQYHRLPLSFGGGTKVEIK

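This is the validation round: designs drawn from the data on random variants, tested in the same kind of assay. Group labels follow the data file (Ctrl: baseline library sampled from a position-specific scoring matrix, with some repeated check sequences; En: ensemble of fine-tuned language models; GP: Gaussian process model; GPLM: also part of the Gaussian process libraries; HC: hill climbing; Gen: genetic algorithm; Gibbs: Gibbs sampling; a sequence that several methods proposed may carry one label only). The assay is AlphaSeq: two haploid yeast populations carry antibody and antigen on their surface. The frequency of each diploid, read from paired DNA barcodes, reflects how well the two displayed proteins bind. Scores were corrected for input abundance and mapped to Kd with protein pairs of known affinity run in the same pool. Each pool was mated in six replicate cultures.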

Each variant is given by its three heavy chain CDRs, as the data file delimits them; those of the parent are GFTLNSYGIS, VIYSDGRRTFYGDSVK, GRAAGTFDS.
Affinities are written as log10 Kd with Kd in nM; a lower number is a better binder.
Replicates are averaged; those with no signal do not enter the mean.
Where no diploid with the target was found in any replicate, the entry reads "no signal": below detection, most likely a poor binder, though not proof of it.

GFDLNEMGIS / VIYADGMRTKFTESVK / GTGDGSFLL [En_Gibbs]: no signal (0 of 6 replicates).
GFDLNSYGIS / VIYSDGRRTFYGDSVK / GRAADTSDS [Ctrl]: no signal (0 of 6 replicates).
GFTLNDYGIS / VIYSDGRRTFGGDSVK / GRAAGTFVS [Ctrl]: no signal (0 of 6 replicates).
GFTLNSYGIS / VIYSDGKRTFYQDSVK / GRLAGTFDS [Ctrl]: 1.84 (4 of 6 replicates).
GFDLNEYGIS / VIYADGRRTFYTDSVK / GEEAGTFDS [En_HC]: -0.60 (6 of 6 replicates).
GFDLNEYGIS / VIYADGFRTFYADSVK / GNLAGTFDQ [En_HC]: -0.61 (6 of 6 replicates).
GFDLDEYGIS / VIYADGMRTFYADSVK / GNIAGTFFS [En_HC]: -0.42 (6 of 6 replicates).
GFTLNSYGIS / VIYSDGRRVFYGDSVK / GRGAGTFDS [Ctrl]: no signal (0 of 6 replicates).
GFDLNEYGIS / VIYADGMRTFYADSVK / GNLAGTFDF [En_HC]: -0.46 (6 of 6 replicates).
GIDMQEYGIS / VIYADGLRTAYSDNFK / GVLGGTFDM [En_Gibbs]: 0.45 (6 of 6 replicates).
GFDLDEYGIS / VIYADGKRTAYADSVK / GQNAGTFDL [En_Gen]: -0.36 (6 of 6 replicates).
GFTLNNYGIS / VIYSDGRRTAYQDSTK / GRAAGTTDQ [Ctrl]: 1.45 (6 of 6 replicates).
MFSLNEYGIS / VIYSDGRRTYYGDSVK / GRAAGTFDS [GP_Gibbs]: 2.19 (5 of 6 replicates).
GFTLNSYGIS / VIYADGRRTAYGDSVK / GRAQGTFDS [Ctrl]: 2.56 (4 of 6 replicates).
GFDLNEYGIS / VIYADGKRTAYADDVK / GQNAGTFDV [En_Gen]: -0.60 (6 of 6 replicates).
GFTLESYGIS / VIYSDGRRQFYTDSVK / GQAAGTFDS [Ctrl]: 1.45 (5 of 6 replicates).
GFRLNEYGIS / VIYSDGRRTFYGDSVK / GQTAGTFDS [GPLM_HC]: 0.25 (6 of 6 replicates).
GNSLNSYGIS / VIYSDGRRTFYGDSVK / GRAAGTFDS [Ctrl]: 2.03 (3 of 6 replicates).
GETLNSYSIS / VIYSDGRRTFYEDSVK / GNAAGTFDS [Ctrl]: no signal (0 of 6 replicates).
GFDLNTYGIS / VIYSDGRRTFYGDSVK / GREAGTFDT [GP_Gen]: 0.08 (4 of 6 replicates).
GFTLNEYGIS / VIYSDGKRTFYGDAVK / GRTAGTFWS [GP_Gibbs]: no signal (0 of 6 replicates).
GFDLNEYGIS / VIYADGKRTAYADSVK / GGNAGTFDV [En_Gen]: -0.11 (6 of 6 replicates).
GFNLNSYGIS / VIYSDGRRTFYVDDVK / GQAAGTFDS [GP_Gen]: 0.93 (4 of 6 replicates).
GFTLNSYGIS / VIYSDGRRTYYGDSVK / GTVAGTFSS [Ctrl]: 0.12 (4 of 6 replicates).
GFNLDEYGIS / VIYADGYRTMYADDVK / GMNSGFGGT [En_Gibbs]: no signal (0 of 6 replicates).
GFELNEYGIS / VIYSDGRRTMYGDSVK / GRTAGTFDS [GP_Gen]: -0.24 (6 of 6 replicates).
GFDLEDYGIS / VIYADGRRTFYADSVK / GEIAGTFDI [En_HC]: -0.03 (6 of 6 replicates).
GFHLNSYGIS / VIYSDGRRTFYTDSVK / GMGAGRDDS [Ctrl]: 2.00 (1 of 6 replicates).
GFDLNEYGIS / VIYADGQRTAYADSVK / GKAAGTFDN [En_HC]: -0.64 (6 of 6 replicates).
GFTLNEYGIS / VIYSDGRRTFYTDDVK / GEAAGTFES [GP_HC]: 1.22 (3 of 6 replicates).
GFELNTYGIS / VIYSDGRRTFYGDNVK / GRTAGTFDS [GP_Gibbs]: 0.60 (6 of 6 replicates).
YFTLNDYGIS / VIYSDGRRTFYIDSVK / GRAAGTFDS [GP_HC]: 1.87 (1 of 6 replicates).
GFDLNEYGIS / VIYADGRRTFYIDSVK / GTNAGTFDT [En_HC]: -0.03 (6 of 6 replicates).
GFWLNEYGIS / VIYSDGRRTFYGDSVK / GRIAGTFDS [GPLM_Gen]: no signal (0 of 6 replicates).
GFTLNSYGIS / VIYSDGVRTFYGDSVK / GEAAGTFDS [GPLM_Gibbs]: -0.52 (6 of 6 replicates).

The authors' rule: three or more of the six replicates give a measured affinity, fewer mean a poor binder.
Empty control strains, which show no peptide, gave a signal in 1% of pairings with all heavy chain designs; the median was 2.08 and 95% of these signals were weaker than 0.84. No background was subtracted.
Values of this round are not directly comparable with the first-round values of the same sequences.

Data: MIT Lincoln Laboratory AlphaSeq set, Li et al. 2023, doi:10.1038/s41467-023-39022-2, as distributed in FLAb.